From ChEMBL document CHEMBL1667816, “Preparation and in vitro screening of symmetrical bis-isoquinolinium cholinesterase inhibitors bearing various connecting linkage--implications for early Myasthenia gravis treatment” (Eur J Med Chem, 2011) come the findings set out here.

Chains of the proteins cited; added tags and fusions are not shown. Lines headed by an entry give the natural chain unless they say otherwise; changes in a name come on top.
UniProt P06276, whole entry, looked up: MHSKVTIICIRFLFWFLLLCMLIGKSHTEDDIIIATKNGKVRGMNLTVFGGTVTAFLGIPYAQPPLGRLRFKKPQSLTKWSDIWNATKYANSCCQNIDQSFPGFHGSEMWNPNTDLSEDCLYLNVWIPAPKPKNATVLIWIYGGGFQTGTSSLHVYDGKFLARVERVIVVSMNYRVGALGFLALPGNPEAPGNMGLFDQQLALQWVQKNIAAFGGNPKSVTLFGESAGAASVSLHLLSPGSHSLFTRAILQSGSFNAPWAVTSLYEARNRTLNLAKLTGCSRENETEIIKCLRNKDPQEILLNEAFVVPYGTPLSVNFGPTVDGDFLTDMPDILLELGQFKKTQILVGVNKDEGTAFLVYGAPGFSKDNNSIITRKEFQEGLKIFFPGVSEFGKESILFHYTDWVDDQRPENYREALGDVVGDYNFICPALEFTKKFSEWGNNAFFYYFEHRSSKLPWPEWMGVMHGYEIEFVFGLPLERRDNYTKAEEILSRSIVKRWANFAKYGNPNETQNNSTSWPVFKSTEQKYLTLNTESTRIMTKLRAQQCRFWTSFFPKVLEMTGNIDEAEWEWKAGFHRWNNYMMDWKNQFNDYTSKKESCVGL
UniProt P22303: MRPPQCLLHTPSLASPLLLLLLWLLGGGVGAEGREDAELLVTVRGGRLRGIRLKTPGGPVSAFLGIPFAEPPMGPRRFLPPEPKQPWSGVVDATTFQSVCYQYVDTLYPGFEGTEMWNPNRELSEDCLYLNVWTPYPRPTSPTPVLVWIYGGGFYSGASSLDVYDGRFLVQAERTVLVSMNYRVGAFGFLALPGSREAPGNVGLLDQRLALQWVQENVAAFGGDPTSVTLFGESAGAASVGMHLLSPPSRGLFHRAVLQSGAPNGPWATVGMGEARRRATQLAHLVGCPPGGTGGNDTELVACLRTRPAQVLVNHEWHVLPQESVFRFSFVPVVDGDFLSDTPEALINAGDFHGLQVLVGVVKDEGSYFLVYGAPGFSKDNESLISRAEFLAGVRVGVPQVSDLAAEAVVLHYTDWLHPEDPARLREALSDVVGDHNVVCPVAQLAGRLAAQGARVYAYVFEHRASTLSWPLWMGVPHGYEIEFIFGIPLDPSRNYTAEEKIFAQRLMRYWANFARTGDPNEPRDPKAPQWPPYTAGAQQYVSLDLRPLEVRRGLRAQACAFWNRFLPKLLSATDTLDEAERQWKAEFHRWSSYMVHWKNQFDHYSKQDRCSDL

Molecules are shown by their SMILES.

The target of this assay is Cholinesterases; ACHE & BCHE (Homo sapiens) (UniProt P06276+P22303). As to the kind of experiment: Selectivity ratio of IC50 for human plasmatic BChE to IC50 for human recombinant AChE.

On to `CCN(CC)C(C)CN1c2ccccc2Sc2ccccc21` (stereo not drawn), for which the Ratio IC50 worked out at 0.002.

For the molecule `C=CC[N+](C)(C)c1ccc(CCC(=O)CCc2ccc([N+](C)(C)CC=C)cc2)cc1`, the Ratio IC50 worked out at 11800.

In the case of `c1ccc2c[n+](CCCCCCCC[n+]3ccc4ccccc4c3)ccc2c1`, the Ratio IC50 amounted to 80.
